SMILES strings stand for the structures.

Chains of the proteins cited; added tags and fusions are not shown.
UniProt P15170, whole entry: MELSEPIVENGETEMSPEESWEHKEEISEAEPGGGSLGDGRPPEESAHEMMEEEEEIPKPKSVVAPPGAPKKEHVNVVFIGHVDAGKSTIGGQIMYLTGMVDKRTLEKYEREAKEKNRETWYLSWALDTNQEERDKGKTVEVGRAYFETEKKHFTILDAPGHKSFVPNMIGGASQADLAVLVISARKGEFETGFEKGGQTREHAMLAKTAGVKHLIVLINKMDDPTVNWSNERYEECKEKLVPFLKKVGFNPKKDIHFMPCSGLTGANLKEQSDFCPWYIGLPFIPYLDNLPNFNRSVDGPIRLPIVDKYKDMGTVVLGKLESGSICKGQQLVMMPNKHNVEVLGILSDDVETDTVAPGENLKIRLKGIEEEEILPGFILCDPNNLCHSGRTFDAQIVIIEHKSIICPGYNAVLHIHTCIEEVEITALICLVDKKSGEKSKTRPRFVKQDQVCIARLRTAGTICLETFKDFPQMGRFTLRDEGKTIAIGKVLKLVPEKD
UniProt Q96SW2, whole entry: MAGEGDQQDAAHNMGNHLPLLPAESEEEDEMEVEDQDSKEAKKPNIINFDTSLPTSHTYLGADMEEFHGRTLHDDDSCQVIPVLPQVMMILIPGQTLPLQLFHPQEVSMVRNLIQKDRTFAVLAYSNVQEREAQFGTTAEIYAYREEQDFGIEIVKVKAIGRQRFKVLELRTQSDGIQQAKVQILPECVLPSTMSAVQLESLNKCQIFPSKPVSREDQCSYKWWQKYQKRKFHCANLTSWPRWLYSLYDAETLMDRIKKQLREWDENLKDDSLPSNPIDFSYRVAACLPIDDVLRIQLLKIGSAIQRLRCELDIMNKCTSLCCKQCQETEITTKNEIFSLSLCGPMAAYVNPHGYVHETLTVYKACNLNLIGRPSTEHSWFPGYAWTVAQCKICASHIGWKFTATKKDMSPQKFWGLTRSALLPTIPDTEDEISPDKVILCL
UniProt Q16531, whole entry partner: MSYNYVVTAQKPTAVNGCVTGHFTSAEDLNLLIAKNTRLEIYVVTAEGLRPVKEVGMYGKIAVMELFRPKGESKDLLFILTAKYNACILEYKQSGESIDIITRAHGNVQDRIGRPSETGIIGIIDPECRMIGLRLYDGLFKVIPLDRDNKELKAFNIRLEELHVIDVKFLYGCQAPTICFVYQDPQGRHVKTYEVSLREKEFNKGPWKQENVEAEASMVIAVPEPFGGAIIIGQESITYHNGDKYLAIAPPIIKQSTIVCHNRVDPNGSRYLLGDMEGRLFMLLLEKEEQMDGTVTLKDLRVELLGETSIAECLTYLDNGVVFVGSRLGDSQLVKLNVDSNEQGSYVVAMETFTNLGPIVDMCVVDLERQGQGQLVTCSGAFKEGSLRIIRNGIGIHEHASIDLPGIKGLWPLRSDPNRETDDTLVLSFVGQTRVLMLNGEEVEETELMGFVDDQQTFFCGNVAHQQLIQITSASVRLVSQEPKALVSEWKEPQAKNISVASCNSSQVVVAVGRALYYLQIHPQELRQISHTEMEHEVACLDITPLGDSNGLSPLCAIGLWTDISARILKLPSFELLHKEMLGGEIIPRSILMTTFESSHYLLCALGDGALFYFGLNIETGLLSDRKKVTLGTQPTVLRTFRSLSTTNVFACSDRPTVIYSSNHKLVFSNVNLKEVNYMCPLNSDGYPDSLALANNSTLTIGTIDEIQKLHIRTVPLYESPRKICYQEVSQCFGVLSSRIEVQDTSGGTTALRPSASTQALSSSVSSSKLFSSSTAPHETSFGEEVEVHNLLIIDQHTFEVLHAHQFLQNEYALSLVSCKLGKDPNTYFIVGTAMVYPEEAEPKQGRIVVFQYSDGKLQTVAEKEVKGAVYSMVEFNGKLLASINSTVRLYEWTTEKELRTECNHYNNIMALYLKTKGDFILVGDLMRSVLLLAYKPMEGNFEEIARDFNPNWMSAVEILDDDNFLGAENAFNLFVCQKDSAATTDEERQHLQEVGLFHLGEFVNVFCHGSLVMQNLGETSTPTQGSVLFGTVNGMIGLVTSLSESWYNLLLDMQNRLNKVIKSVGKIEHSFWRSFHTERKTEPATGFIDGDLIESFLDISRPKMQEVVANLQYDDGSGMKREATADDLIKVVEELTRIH

The test system of one test is HL60 cells. Briefly: HL60 cell killing experiment (CellTiter-Glo cell viability). Particulars: 48 h incubation, CTG luminescence. Here is the method:
HL60 cell lines were purchased from ATCC (Cat #ATCC® CCL-240™), IMDM media were purchased from ATCC (Cat #ATCC® 30-2005™), FBS was purchased from Gibco (Cat #10091148), celltiter-glo luminescent cell viability assay was purchased from promega (Cat #G7572), and 96-well plates were purchased from corning (Cat #3610).
The effect of compounds on the growth of HL60 cells was determined by measuring cell viability. Firstly, cells in the logarithmic growth phase were collected and centrifuged, and the culture supernatant was discarded. The centrifuged cells were resuspended in a fresh complete medium, and the cell density was adjusted to 5×10^4 cells/mL. The resuspended cells were inoculated into two opaque 96-well cell culture plates at 100 μL of cell suspension per well, and the cell culture plates were incubated in a cell incubator at 37° C. for 4 h. […] After one of the cell plates was cooled to room temperature, 60 μL of CTG reagent was added, and the luminescence values were read on the instrument as G0. […] After 48 h, 60 μL of CTG reagent was added, and the luminescence values were read on the instrument as G3.
According to the corresponding proliferation rate and concentration of each gradient concentration well, a gradient curve of cell proliferation was fitted using XLFit software, and the GI50 values of compounds were calculated.
(In general: ATP-based viability assays read luminescence as a measure of living cells.)

The target of the next test is GSPT1 (Homo sapiens, UniProt P15170+Q96SW2). Briefly: Degradation of GSPT1 by the compounds (HiBiT signal in GSPT1/HEK293 hibit cells). Particulars: 6 h incubation, Nano Glo HiBiT Lytic Detection. The protocol:
GSPT1/HEK293 hibit cell lines were constructed by Shanghai BioDuro Co., Ltd., HEK293 cell lines were purchased from ATCC (Cat #ATCC® CRL-1573™), DMEM media were purchased from ATCC (Cat #ATCC® 30-2002™), FBS was purchased from Gibco (Cat #10091148), Nano Glo HiBiT Lytic Detection System was purchased from Promega (Cat #N3040), and 96-well plates were purchased from coming (Cat #3610).
The degradation of GSPT1 by the compounds was determined by measuring the intensity of hibit signals in cells. Firstly, the cells were digested with pancreatin, and the digestion was then terminated with medium. The cells were centrifuged, and the supernatant was discarded. The centrifuged cells were resuspended in a fresh complete medium, and the cell density was adjusted to 2.5×10^4 cells/mL. The resuspended cells were inoculated into an opaque 96-well cell culture plate at 100 μL of cell suspension per well, and the cell culture plate was incubated in a cell incubator at 37° C. overnight. […] After 6 h, 60 μL of Nano Glo HiBiT Lytic Detection System reagent was added and the luminescence values were read on the instrument.
According to the corresponding degradation rate and concentration of each gradient concentration well, a gradient curve of degradation rate was fitted using XLFit software, and the DC50 values of compounds were calculated.
(HiBiT is a short tag that completes a luciferase, so light tracks the accessible tagged protein.)

Broadly, the GI50 is the concentration that inhibits growth by half. A higher GI50 goes with less potent growth inhibition. As usually defined, the DC50 is the midpoint of the concentration-degradation curve. `O=C1CCC(N2Cc3c(OCc4ccnc(C(=O)N[C@H]5CC[C@H](c6nc7cccnc7s6)CC5)c4)cccc3C2=O)C(=O)N1` (some centres unmarked): the GI50 with HL60 cells was less than 0.1 µM. At GSPT1, this molecule returned a DC50 of less than 0.1 µM.

For the origin of these results see US20250361239A1, “PROTEIN DEGRADERS AND USES THEREOF” (ZHUHAI YUFAN BIOTECHNOLOGIES CO., LTD., priority 2022, published 2025).
